From ChEMBL document CHEMBL6083287, “Development of Potent and Selective Inhibitors of Methylenetetrahydrofolate Dehydrogenase 2 for Targeting Acute Myeloid Leukemia: SAR, Structural Insights, and Biological Characterization” (J Med Chem, 2024)

System: MOLM-14
Experiment: Synergistic antiproliferative activity against human MOLM-14 cells assessed as combination index incubated for 72 hrs in presence of alimta by MTT assay

Nc1nc(N)c(NC(=O)Nc2ccc(C(=O)N[C@@H](CCc3nnn[nH]3)C(=O)O)cc2)c(=O)[nH]1
CI: 0.77 as printed
